# Measured affinities in a library of Ab-95 light chain variants

From the AlphaSeq antibody data of Engelhart et al. 2022 (doi:10.1038/s41597-022-01779-4), copy in the FLAb collection.

Antigen: PDVDLGDISGINAS, a 14-residue peptide of the SARS-CoV-2 spike HR2 region.

The variants keep the heavy chain, the linker and the frameworks of Ab-95 (scFv order VH, three GGGGS repeats, VL).
VH: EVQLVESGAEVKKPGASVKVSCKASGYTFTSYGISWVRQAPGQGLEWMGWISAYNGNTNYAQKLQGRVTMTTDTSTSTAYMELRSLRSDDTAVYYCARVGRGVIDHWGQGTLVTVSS
VL: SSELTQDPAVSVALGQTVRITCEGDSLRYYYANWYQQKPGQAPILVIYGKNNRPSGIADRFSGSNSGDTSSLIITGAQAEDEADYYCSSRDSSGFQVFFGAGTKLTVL

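Library AAYL52 holds single substitutions and randomly drawn double and triple substitutions in the CDRs. AlphaSeq pools MATa yeast showing the antibodies with MATalpha yeast showing the peptide. Pairs that bind mate more often; barcode pairs of the diploids are counted by sequencing. A regression on co-assayed BCL2-family reference pairs converts the normalised counts of each replicate to an apparent Kd. There are three technical replicates.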

Each variant is given by its three light chain CDRs, as the data file delimits them; those of the parent are EGDSLRYYYAN, GKNNRPS, SSRDSSGFQVF.
Values are log10 of the apparent Kd in nM; lower means stronger binding.
Where no diploid with the target was found in that replicate, the entry reads "ND": below detection, most likely a poor binder, though not proof of it.
Three control strains display no target. For library AAYL52, 28% of the pairings with them gave a signal, with a median of 3.91 and one signal in twenty below 2.90, so weak values seen in few replicates may be background. Also given: how often the same scFv was detected with the empty control strains, with their mean in brackets.
In this assay the parent's reference entry averaged 2.31; its copy inside this library read 2.25.

CDR-L1 | CDR-L2 | CDR-L3 | log10 Kd, replicates | control signals
EGDSLRYYYWN | GKTNRPS | SSRDSSGFQVA | ND / ND / 3.86 | 5 of 9 (4.14)
EGDSLKYYYAN | GKNNRPY | SSRDSSGFQVF | 2.01 / 2.15 / 1.73 | 4 of 9 (4.13)
AGDSLRYYYAN | GKNNNPS | SSRDRSGFQVF | 2.92 / 2.29 / 1.84 | 0 of 9
EGDSLRYYYAN | GKVNRPS | SSRDSSGCQVS | ND / ND / ND | 1 of 9 (2.48)
EGDSLRYYTAN | GKNNRPS | SSRDSVGFQVF | 2.55 / 2.04 / 1.95 | 4 of 9 (3.52)
ECDSLRYYYAN | GKNMRPS | SSRDVSGFQVF | 2.91 / 2.52 / 1.89 | 3 of 9 (4.00)
EGDRLRYYYAN | GMNNRPS | SSRDSSGFQVL | 5.63 / ND / ND | 2 of 9 (3.89)
ETDSLRYYYAT | GKNNRPS | SSSDSSGFQVF | 4.97 / ND / ND | 2 of 9 (3.90)
EGDSLRYYYAN | GKNNRPS | SSRDISGPGVF | 4.36 / 3.62 / ND | 4 of 9 (3.81)
EGDSLRGYYAN | GMNNRPS | SSRDSSGFQVF | 1.14 / 1.15 / 0.49 | 4 of 9 (4.52)
EGDSLRYYQKN | GMNNRPS | SSRDSSGFQVF | 2.77 / 2.56 / 2.02 | 4 of 9 (3.26)
EGYSLRYYHAN | GKNNCPS | SSRDSSGFQVF | ND / 3.21 / 3.51 | 2 of 9 (4.26)
EGDSLRYYYAN | GLGNRPS | SSRDQSGFQVF | 2.61 / 2.79 / 2.87 | 0 of 9
MGDSLRYYYAN | GKNNRPS | SSAKSSGFQVF | 4.27 / 4.38 / ND | 2 of 9 (4.13)
EGDSLAYYYAL | GKNNRPS | SSRDSSGFQVF | 4.30 / 4.90 / 3.88 | 3 of 9 (4.21)
TGDSLRYYYAN | GKNNRPS | SVRDSSGFQKF | 3.83 / 3.25 / 2.80 | 1 of 9 (4.55)
EGDSLRYYYAN | GKNNRAQ | SSRMSSGFQVF | 3.72 / 3.58 / ND | 0 of 9
EGDSLRYYPAH | GKNNEPS | SSRDSSGFQVF | 4.59 / 2.24 / 2.81 | 6 of 9 (3.31)
EGDSVRYYYAN | GKNNGPS | SSRDSSGWQVF | ND / ND / ND | 1 of 9 (4.96)
EGDSLRAYYAN | GKNNIPS | SSFDSSGFQVF | 2.93 / 3.73 / 4.19 | 7 of 9 (3.93)
EGDSLRYYYAN | GKNNTPS | SSRTSSLFQVF | 3.00 / 3.46 / 4.10 | 1 of 9 (5.37)
EGDSERYYYAN | GKNNRPS | DSRDSSGFQVT | 3.86 / 4.09 / ND | 5 of 9 (4.31)
EGDSLRYDYAN | GKQNRPS | SMRDSSGFQVF | 2.96 / 3.00 / 2.59 | 1 of 9 (4.78)
EGDSLRNYYAN | GKNNRPS | SSEDSKGFQVF | 4.35 / ND / ND | 2 of 9 (3.02)
EGDSLRYYYAP | GKNNRPS | SSRSSSCFQVF | ND / ND / ND | 4 of 9 (3.86)
EGDSLRYYYAN | HKNQRPS | SSRESSGFQVF | 3.75 / 2.84 / 3.99 | 5 of 9 (3.70)
EGDSLRYYYAH | GKNNRPS | SSRDSSLFQVA | 3.39 / ND / ND | 5 of 9 (3.67)
EGDSLAYYYAN | GKNNRPS | SSRDKSGFQDF | 2.54 / 2.49 / 2.66 | 2 of 9 (3.70)
EEVSLRYYYAN | GKNNRPS | SSRDSSGFWVF | 4.19 / ND / 4.85 | 4 of 9 (3.84)
EGDSLRYYYAN | GKNNRPS | SSPMASGFQVF | ND / ND / ND | 2 of 9 (4.22)
EGESLRYYYAN | GKNHRDS | SSRDSSGFQVF | 3.16 / 2.88 / 2.74 | 0 of 9
EGFSLRYYYAN | GTGNRPS | SSRDSSGFQVF | 2.34 / 2.83 / 2.00 | 1 of 9 (3.72)
EGDSLAYYYPN | GKNNRGS | SSRDSSGFQVF | 2.15 / 2.24 / 2.06 | 0 of 9
EGDMLRYYYAN | GKNNRPS | SSSDSSGFQVF | 3.66 / ND / 4.42 | 5 of 9 (4.13)
EADSLRYYYAR | GKNNRPS | SSRDKSGFQVF | ND / ND / ND | 3 of 9 (4.14)